These results are taken from US8344145B2, “Salts of 2-substituted quinolines” (priority 2008, dated 2013).

Series [1] has as its system female CD-1 mice. The following applies: 5 animals. The procedure: (§1) 250 mg of carboxymethylcellulose are dissolved in 50 ml of a 5% glucose solution. 5 ml aliquots containing 0.5% of Tween 80 are emulsified with the quinoline salts (final concentrations at 0.4 mg/ml, 4 mg/ml and 40 mg/ml). The emulsions are subsequently homogenized. The emulsions are administered by force feeding in a single dose to four groups of five female CD-1 mice at the concentrations of 10 mg/kg, 100 mg/kg and 1000 mg/kg and without compounds (control group). The control group receives a glucose-comprising emulsion containing 0.5% of carboxymethyl-cellulose (CMC) and […]. The behavior of the animals is observed and the number of deaths is counted after 1 min, 15 min, 30 min, 1 h, 4 h, 8 h and each day for 14 days. On the final day, a blood sample is taken. Biochemical analyses are carried out in order to evaluate the nephrotoxicity and the hepatotoxicity, the levels of creatinine, of aspartate aminotransferase (ASAT), of alanine aminotransferase (ALAI) and of cholesterol being quantitatively determined.

The subject of series [2] is female CD-1 mice. The series is described as follows: Acute toxicity: blood biochemical parameters on the final day (nephrotoxicity, hepatotoxicity). To be noted: blood sample on final day (day 14). On the procedure:
as §1

Like-named read-outs stand apart in the source and are kept apart here.

With “Camphorsulfonate salt of 2-(hydroxyprop-2-enyl)quinoline”, the acute toxicity observation entry in series [1] (single dose 10 mg/kg oral route) is on record as “absence of toxicity”; in series [1] (single dose 100 mg/kg oral route) it was “absence of toxicity”; in series [1] (single dose 1 g/kg oral route, t1 h), “t1 h - absence of toxicity”. In addition, the “mice with bristling hair” value in series [1] (single dose 1 g/kg oral route, t15 min) is reported as “t15 min - 1 mouse had”. Further, the ALAT came out at 223 ± 74 IU/l in series [2] (dose 10 mg/kg oral), 247 ± 76 IU/l in series [2] (dose 100 mg/kg oral) and 260 ± 131 IU/l in series [2] (dose 1 g/kg oral). The values for the ASAT in series [2] (dose 10 mg/kg oral), in series [2] (dose 100 mg/kg oral) and in series [2] (dose 1 g/kg oral) were 337 ± 80 IU/l, 397 ± 202 IU/l and 388 ± 70 IU/l, respectively. Moreover, the values for the Cholesterol in series [2] (dose 10 mg/kg oral), in series [2] (dose 100 mg/kg oral) and in series [2] (dose 1 g/kg oral) were 3.9 ± 0.3 mM, 4.6 ± 0.5 mM and 3.4 ± 0.6 mM, respectively. In addition, the figures for the Creatinine in series [2] (dose 10 mg/kg oral), in series [2] (dose 100 mg/kg oral) and in series [2] (dose 1 g/kg oral) were less than 18 µM, less than 18 µM and 20.7 ± 3.1 µM, respectively.
